Experiments:
Mus musculus [1] = assay: in vivo activity against aerobic and hypoxic cells in RIF-1 tumors when administered at a dose of 23.7 umol/kg in mice after 5 min of exposure to radiation
EMT6 [2] = assay: Hypoxic cytotoxicity ratio was determined; settings: Mus musculus
EMT6 [3] = assay: Ability to reduce surviving fraction of EMT6 cells to 10% when exposed to N2 for 3 hrs; settings: Mus musculus
EMT6 [4] = assay: Ability to reduce surviving fraction of EMT6 cells to 10% when exposed to air for 3 hrs; settings: Mus musculus
Mus musculus [5] = assay: in vivo activity against aerobic and hypoxic cells in RIF-1 tumors when administered at a dose of 23.7 umol/kg in mice 30 min before exposure to radiation
Mus musculus [6] = assay: in vivo activity against aerobic and hypoxic cells in RIF-1 tumors when administered at a dose of 23.7 umol/kg in mice
Mus musculus [7] = assay: in vivo activity against aerobic and hypoxic cells in RIF-1 tumors when administered at a dose of 42.1 umol/kg in mice
Mus musculus [8] = assay: in vivo activity against aerobic and hypoxic cells in RIF-1 tumors when administered at a dose of 42.1 umol/kg in mice after 5 min of exposure to radiation
Mus musculus [9] = assay: in vivo activity against aerobic and hypoxic cells in RIF-1 tumors when administered at a dose of 42.1 umol/kg in mice 30 min before exposure to radiation
Mus musculus [10] = assay: in vivo activity against aerobic and hypoxic cells in RIF-1 tumors when administered at a dose of 56.2 umol/kg in mice 30 min before exposure to radiation
Mus musculus [11] = assay: in vivo activity against aerobic and hypoxic cells in RIF-1 tumors when administered at a dose of 56.2 umol/kg in mice after 5 min of exposure to radiation
Mus musculus [12] = assay: in vivo activity against aerobic and hypoxic cells in RIF-1 tumors when administered at a dose of 56.2 umol/kg in mice

SMILES	Log cell kill (Mus musculus [1])	C10 (EMT6 [2])	C10 (EMT6 [3])	C10 (EMT6 [4])	Log cell kill (Mus musculus [5])	Log cell kill (Mus musculus [6])	Log cell kill (Mus musculus [7])	Log cell kill (Mus musculus [8])	Log cell kill (Mus musculus [9])	Log cell kill (Mus musculus [10])	Log cell kill (Mus musculus [11])	Log cell kill (Mus musculus [12])
Cn1ncc([N+](=O)[O-])c1C[N+](C)(CCCl)CCCl	0.1	17 µM	3.5 µM	85 µM	0.17	0.12	–	–	–	–	–	–
Cn1c(C[N+](C)(CCCl)CCCl)ccc1[N+](=O)[O-]	–	12 µM	27 µM	320 µM	–	–	0.25	0.23	0.48	–	–	–
Cn1ccc(C[N+](C)(CCCl)CCCl)c1[N+](=O)[O-]	–	16 µM	18 µM	245 µM	–	–	–	–	–	0.38	0.47	0.24

From ChEMBL document CHEMBL1134417, “Hypoxia-selective antitumor agents. 16. Nitroarylmethyl quaternary salts as bioreductive prodrugs of the alkylating agent mechlorethamine” (2001)
